Reference: patent US11618753B2 (priority 2018, dated 2023)

Sequences of proteins named here, by UniProt entry; tags and fusion partners are left off. A change or cut given only in a name is not applied to a line headed by its entry.
UniProt O00329: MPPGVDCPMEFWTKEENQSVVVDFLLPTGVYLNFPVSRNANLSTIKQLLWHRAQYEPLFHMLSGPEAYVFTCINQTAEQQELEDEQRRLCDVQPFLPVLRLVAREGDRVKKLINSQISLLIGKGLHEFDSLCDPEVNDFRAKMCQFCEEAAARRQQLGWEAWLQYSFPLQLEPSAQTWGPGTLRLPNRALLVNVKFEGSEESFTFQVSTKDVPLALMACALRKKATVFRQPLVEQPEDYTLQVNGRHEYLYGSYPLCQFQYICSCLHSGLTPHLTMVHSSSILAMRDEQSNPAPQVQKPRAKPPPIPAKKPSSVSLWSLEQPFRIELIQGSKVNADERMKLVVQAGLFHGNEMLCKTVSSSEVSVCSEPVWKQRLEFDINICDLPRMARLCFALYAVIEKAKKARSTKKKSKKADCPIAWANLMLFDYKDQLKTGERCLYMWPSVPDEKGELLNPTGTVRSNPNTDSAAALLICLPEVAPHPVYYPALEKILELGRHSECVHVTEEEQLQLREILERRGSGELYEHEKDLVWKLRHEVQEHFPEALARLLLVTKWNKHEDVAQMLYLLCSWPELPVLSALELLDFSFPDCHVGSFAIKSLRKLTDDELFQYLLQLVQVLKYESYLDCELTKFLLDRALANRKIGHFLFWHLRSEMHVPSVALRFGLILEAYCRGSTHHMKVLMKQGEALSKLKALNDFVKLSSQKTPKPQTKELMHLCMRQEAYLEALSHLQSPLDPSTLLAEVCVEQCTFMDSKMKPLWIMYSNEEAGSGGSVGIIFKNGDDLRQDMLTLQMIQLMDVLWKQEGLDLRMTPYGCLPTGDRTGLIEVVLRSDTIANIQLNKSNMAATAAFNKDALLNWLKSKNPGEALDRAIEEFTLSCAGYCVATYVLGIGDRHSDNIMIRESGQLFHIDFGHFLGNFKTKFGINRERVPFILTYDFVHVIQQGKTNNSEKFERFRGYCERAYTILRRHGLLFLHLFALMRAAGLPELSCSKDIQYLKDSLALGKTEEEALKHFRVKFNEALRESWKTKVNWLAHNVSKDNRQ

target: GST-tagged PIK3Cδ in complex with PIK3R1 (Homo sapiens (Human), UniProt O00329); experiment: biochemical

Q: `COc1c(F)cc(-c2cc(C(F)(F)F)c3c(N)ncnn23)cc1C(=O)N[C@@H]1CN(C(=O)[C@@](C)(O)C(F)(F)F)C[C@@H]1F` [Example 686, 5-[4-amino-5-(trifluoromethyl)pyrrolo[2,1-f][1,2,4]triazin-7-yl]-3-fluoro-N-[(3R,4S)-4-fluoro-1-[(28)-3,3,3-trifluoro-2-hydroxy-2-methylpropanoyl]pyrrolidin-3-yl]-2-methoxybenzamide] was tested. Which IC50 did it give?
A: > 15 µM

Q: For `COc1c(F)cc(-c2cc(C(F)(F)F)c3c(N)ncnn23)cc1C(=O)N[C@@H]1CN(C(=O)CC(O)(C(F)(F)F)C(F)(F)F)C[C@@H]1F` [Example 690, 5-[4-amino-5-(trifluoromethyl)pyrrolo[2,1-f][1,2,4]triazin-7-yl]-3-fluoro-N-[(3R,4S)-4-fluoro-1-[4,4,4-trifluoro-3-hydroxy-3-(trifluoromethyl)butanoyl]pyrrolidin-3-yl]-2-methoxybenzamide], which IC50 is on record?
A: 13.2 µM

Q: Which IC50 does the source give for `Cc1cc(-c2cc(C(F)(F)F)c3c(N)ncnn23)cc(C(=O)N[C@@H]2CN(C(=O)CC(O)(C(F)(F)F)C(F)(F)F)C[C@@H]2F)c1Cl` [Example 702, 5-[4-amino-5-(trifluoromethyl)pyrrolo[2,1-f][1,2,4]triazin-7-yl]-2-chloro-N-[(3R,4S)-4-fluoro-1-[4,4,4-trifluoro-3-hydroxy-3-(trifluoromethyl)butanoyl]pyrrolidin-3-yl]-3-methylbenzamide] here?
A: 1.74 µM

Q: How did the IC50 turn out when `CCc1ccc(-c2cc(C(F)(F)F)c3c(N)ncnn23)c(F)c1C(=O)N[C@@H]1CN(C(=O)C2CC(F)(F)C2)C[C@@H]1F` [Example 741, 3-[4-amino-5-(trifluoromethyl)pyrrolo[2,1-f][1,2,4]triazin-7-yl]-N-[(3R,4S)-1-(3,3-difluorocyclobutanecarbonyl)-4-fluoropyrrolidin-3-yl]-6-ethyl-2-fluorobenzamide] was run?
A: 0.58 µM

Q: Which IC50 does the source give for `CCC(O)(C(=O)N1C[C@H](F)[C@H](NC(=O)c2cc(-c3cc(C(F)(F)F)c4c(N)ncnn34)c(F)cc2F)C1)C(F)(F)F` (stereo partly drawn) [Example 781, 5-[4-amino-5-(trifluoromethyl)pyrrolo[2,1-f][1,2,4]triazin-7-yl]-2,4-difluoro-N-[(3R,4S)-4-fluoro-1-[2-hydroxy-2-(trifluoromethyl)butanoyl]pyrrolidin-3-yl]benzamide] here?
A: 2.05 µM

Q: Which IC50 does the source give for `Nc1ncnn2c(-c3cc(C(=O)N[C@@H]4CN(C(=O)CC(C(F)(F)F)C(F)(F)F)C[C@@H]4F)c(F)cc3F)cc(C(F)(F)F)c12` [Example 783, 5-[4-amino-5-(trifluoromethyl)pyrrolo[2,1-f][1,2,4]triazin-7-yl]-2,4-difluoro-N-[(3R,4S)-4-fluoro-1-[4,4,4-trifluoro-3-(trifluoromethyl)butanoyl]pyrrolidin-3-yl]benzamide] here?
A: 0.686 µM

Q: With `C[C@@](O)(C(=O)N1C[C@H](F)[C@H](NC(=O)c2cc(-c3cc(C(F)(F)F)c4c(N)ncnn34)c(F)cc2F)C1)C(F)(F)F` [Example 790, 5-[4-amino-5-(trifluoromethyl)pyrrolo[2,1-f][1,2,4]triazin-7-yl]-2,4-difluoro-N-[(3R,4S)-4-fluoro-1-[(2R)-3,3,3-trifluoro-2-hydroxy-2-methylpropanoyl]pyrrolidin-3-yl]benzamide] as the molecule, how does the IC50 read?
A: 1.09 µM

Q: How did the IC50 turn out when `Cc1cc(F)c(-c2cc(C(F)(F)F)c3c(N)ncnn23)cc1C(=O)N[C@@H]1CN(C(=O)c2cscn2)C[C@@H]1F` [Example 833, 5-[4-amino-5-(trifluoromethyl)pyrrolo[2,1-f][1,2,4]triazin-7-yl]-4-fluoro-N-[(3R,4S)-4-fluoro-1-(1,3-thiazole-4-carbonyl)pyrrolidin-3-yl]-2-methylbenzamide] was run?
A: 0.974 µM

Q: Which IC50 does the source give for `Cc1cccc(C(=O)N2C[C@H](F)[C@H](NC(=O)c3cc(-c4cc(C(F)(F)F)c5c(N)ncnn45)c(F)cc3C)C2)n1` [Example 842, 5-[4-amino-5-(trifluoromethyl)pyrrolo[2,1-f][1,2,4]triazin-7-yl]-4-fluoro-N-[(3R,4S)-4-fluoro-1-(6-methylpyridine-2-carbonyl)pyrrolidin-3-yl]-2-methylbenzamide] here?
A: 1.18 µM
